According to US20080031982A1 (published 2008):

Tests used:
[1] = Serum insulin in KK-Ay diabetic mice; type: in vivo, KK-A^y/Ta mice; settings: 1.0 mg/kg-day by gavage, three days
[2] = Non-fasting serum glucose in KK-Ay diabetic mice; type: in vivo, KK-A^y/Ta mice; settings: 1.0 mg/kg-day by gavage, three days

## CN(CCOc1ccc(CC2SC(=O)NC2=O)cc1)c1ccccn1 (centres unmarked) [rosiglitazone]
[1]
  Insulin [% Pretreatment]: 88.7 % Pretreatment
[2]
  Glucose [% Pretreatment]: 80.3# % Pretreatment

Marks after values point to notes of the source that are not given here.
